Tested on: DA release in the nucleus accumbens (NAc) shell
Assay: In vivo brain microdialysis, NAc shell extracellular DA
Set-up: species or system mouse
Settings: awake freely moving mice; i.p.: amphetamine 10 mg/kg, cocaine 20 mg/kg, JWH-018 0.3 mg/kg, AKB48 0.3 mg/kg
Protocol: Male ICR (CD-1®) mice, 25–30 g (ENVIGO. Harlan Italy; S. Pietro al Natisone, Italy) were anesthetized with Isoflurane (3%; 200 ml/min) and implanted with vertical dialysis probe (1 mm dialyzing portion) prepared with AN69 fibers (Hospal Dasco, Bologna, Italy) in the NAc shell (A + 1.4, L 0.4 from bregma, V-4.8 from dura) according to the mouse brain atlas by Paxinos and Franklin ([40]). On the day following surgery, probes were perfused with Ringer’s solution (147 mM NaCl, 4 mM KCl, 2.2 mM CaCl2) at a constant rate of 1 µl/min. Dialyzate samples (10 µl) were injected into an HPLC equipped with a reverse phase column (C8 3.5 um, Waters, USA) and a coulometric detector (ESA, Coulochem II) to quantify DA. The first electrode of the detector was set at +130 mV (oxidation) and the second at −175 mV (reduction). The composition of the mobile phase was as follows: 50 mM NaH2PO4, 0.1 mM Na2-EDTA, 0.5 mM n-octyl sodium sulfate, 15% (v/v) methanol, pH 5.5. The sensitivity of the assay for DA was 5 fmol/sample. At the end of each experiment, animals were sacrificed and their brains removed and stored in formalin (8%) for histological examination to verify the correct placement of the microdialysis probe.

SMILES	NAc shell extracellular DA levels
CC(N)Cc1ccccc1 (centres unmarked) [Amphetamine, reference compound]	significantly increased
COC(=O)[C@H]1[C@@H](OC(=O)c2ccccc2)C[C@@H]2CC[C@H]1N2C [Cocaine, reference compound]	significantly increased
